The data set can be described thus: Solubility and stability characteristics compared to human amylin. It is filed as physicochemical. The source says: These preferred compounds include ^25Pro^26Val^28,29Pro-h-amylin, ^25,28,29Pro-h-amylin (also referred to herein as “AC-0137”), and ^18Arg^25,28Pro-h-amylin.

Consider `CC[C@H](C)[C@H](NC(=O)[C@@H]1CCCN1C(=O)CNC(=O)[C@H](Cc1ccccc1)NC(=O)[C@H](CC(N)=O)NC(=O)[C@H](CC(N)=O)NC(=O)[C@H](CO)NC(=O)[C@H](CO)NC(=O)[C@H](CCCNC(=N)N)NC(=O)[C@@H](NC(=O)[C@H](CC(C)C)NC(=O)[C@H](Cc1ccccc1)NC(=O)[C@H](CC(N)=O)NC(=O)[C@H](C)NC(=O)[C@H](CC(C)C)NC(=O)[C@H](CCCNC(=N)N)NC(=O)[C@H](CCC(N)=O)NC(=O)[C@@H](NC(=O)[C@H](C)NC(=O)[C@@H]1CSSC[C@H](NC(=O)[C@@H](N)CCCCN)C(=O)N[C@@H](CC(N)=O)C(=O)N[C@@H]([C@@H](C)O)C(=O)N[C@@H](C)C(=O)N[C@@H]([C@@H](C)O)C(=O)N1)[C@@H](C)O)C(C)C)C(=O)N[C@@H](CC(C)C)C(=O)N1CCC[C@H]1C(=O)N[C@@H](CO)C(=O)N[C@H](C(=O)N[C@@H](CC(N)=O)C(=O)N[C@H](C(=O)NCC(=O)N[C@@H](CO)C(=O)N[C@@H](CC(N)=O)C(=O)N[C@H](C(=O)N[C@@H](Cc1ccc(O)cc1)C(N)=O)[C@@H](C)O)C(C)C)[C@@H](C)O` [^18Arg^25,28Pro-h-amylin], for which the solubility characteristics result was “more desirable” and the stability characteristics entry is given as “more desirable”. As for `CC[C@H](C)[C@H](NC(=O)[C@@H]1CCCN1C(=O)CNC(=O)[C@H](Cc1ccccc1)NC(=O)[C@H](CC(N)=O)NC(=O)[C@H](CC(N)=O)NC(=O)[C@H](CO)NC(=O)[C@H](CO)NC(=O)[C@H](Cc1c[nH]cn1)NC(=O)[C@@H](NC(=O)[C@H](CC(C)C)NC(=O)[C@H](Cc1ccccc1)NC(=O)[C@H](CC(N)=O)NC(=O)[C@H](C)NC(=O)[C@H](CC(C)C)NC(=O)[C@H](CCCNC(=N)N)NC(=O)[C@H](CCC(N)=O)NC(=O)[C@@H](NC(=O)[C@H](C)NC(=O)[C@@H]1CSSC[C@H](NC(=O)[C@@H](N)CCCCN)C(=O)N[C@@H](CC(N)=O)C(=O)N[C@@H]([C@@H](C)O)C(=O)N[C@@H](C)C(=O)N[C@@H]([C@@H](C)O)C(=O)N1)[C@@H](C)O)C(C)C)C(=O)N[C@@H](CC(C)C)C(=O)N1CCC[C@H]1C(=O)N1CCC[C@H]1C(=O)N[C@H](C(=O)N[C@@H](CC(N)=O)C(=O)N[C@H](C(=O)NCC(=O)N[C@@H](CO)C(=O)N[C@@H](CC(N)=O)C(=O)N[C@H](C(=O)N[C@@H](Cc1ccc(O)cc1)C(N)=O)[C@@H](C)O)C(C)C)[C@@H](C)O` [AC137, ^25,28,29Pro-h-amylin], the solubility characteristics entry is recorded as “more desirable”. In the case of `CC(C)C[C@H](NC(=O)[C@H](CCCNC(=N)N)NC(=O)[C@H](CCC(N)=O)NC(=O)[C@@H](NC(=O)[C@H](C)NC(=O)[C@@H]1CSSC[C@H](NC(=O)[C@@H](N)CCCCN)C(=O)N[C@@H](CC(N)=O)C(=O)N[C@@H]([C@@H](C)O)C(=O)N[C@@H](C)C(=O)N[C@@H]([C@@H](C)O)C(=O)N1)[C@@H](C)O)C(=O)N[C@@H](C)C(=O)N[C@@H](CC(N)=O)C(=O)N[C@@H](Cc1ccccc1)C(=O)N[C@@H](CC(C)C)C(=O)N[C@H](C(=O)N[C@@H](Cc1c[nH]cn1)C(=O)N[C@@H](CO)C(=O)N[C@@H](CO)C(=O)N[C@@H](CC(N)=O)C(=O)N[C@@H](CC(N)=O)C(=O)N[C@@H](Cc1ccccc1)C(=O)NCC(=O)N1CCC[C@H]1C(=O)N[C@H](C(=O)N[C@@H](CC(C)C)C(=O)N1CCC[C@H]1C(=O)N1CCC[C@H]1C(=O)N[C@H](C(=O)N[C@@H](CC(N)=O)C(=O)N[C@H](C(=O)NCC(=O)N[C@@H](CO)C(=O)N[C@@H](CC(N)=O)C(=O)N[C@H](C(=O)N[C@@H](Cc1ccc(O)cc1)C(N)=O)[C@@H](C)O)C(C)C)[C@@H](C)O)C(C)C)C(C)C` [^25Pro^26Val^28,29Pro-h-amylin], the solubility characteristics entry was “more desirable” and the stability characteristics entry is recorded as “more desirable”.

The values are drawn from patent US6417164B1, “Treatment of type II diabetes mellitus with amylin agonists” (Amylin Pharmaceuticals, Inc., priority 1995, dated 2002).
